These are literature values, as cited in US20090186900A1, “COMPOUND” (priority 2006, published 2009).

By UniProt entry, the sequences of proteins in these tests, tags left out. Residues count along the entry.
UniProt P08842, 22-583: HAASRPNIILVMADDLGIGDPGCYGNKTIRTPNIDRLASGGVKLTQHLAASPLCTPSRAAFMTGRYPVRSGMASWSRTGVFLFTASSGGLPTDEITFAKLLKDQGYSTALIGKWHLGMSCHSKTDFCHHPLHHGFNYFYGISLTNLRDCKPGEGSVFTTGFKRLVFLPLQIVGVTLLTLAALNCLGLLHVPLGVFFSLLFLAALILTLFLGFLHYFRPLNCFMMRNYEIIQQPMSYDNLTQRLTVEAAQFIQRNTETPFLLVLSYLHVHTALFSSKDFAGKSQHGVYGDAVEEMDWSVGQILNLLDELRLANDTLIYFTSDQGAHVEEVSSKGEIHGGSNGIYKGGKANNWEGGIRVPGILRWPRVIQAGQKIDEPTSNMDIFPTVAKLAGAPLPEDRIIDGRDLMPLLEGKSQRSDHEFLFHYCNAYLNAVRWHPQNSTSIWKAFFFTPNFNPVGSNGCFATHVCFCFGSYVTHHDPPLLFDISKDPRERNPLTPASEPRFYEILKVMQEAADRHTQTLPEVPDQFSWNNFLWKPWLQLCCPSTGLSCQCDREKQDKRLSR

The target in this data set is steroid sulphatase (Homo sapiens, UniProt P08842). The following applies: in vitro; cited from earlier work.

Turning to `NS(=O)(=O)Oc1ccc2c3c(c(=O)oc2c1)CCCCC3` [Compound 667COUMATE], the “potency relative to EMATE” value was around 3 times.
